Assay results published in ChEMBL document CHEMBL3102826 (J Med Chem, 2013).

Target: Dual specificity tyrosine-phosphorylation-regulated kinase 1A (Homo sapiens, UniProt Q13627)
Assay: Inhibition of DYRK1A (unknown origin)

IC50: 930 nM
SMILES: CCN1/C(=C/C(C)=O)Sc2ccc(OC)cc21
